Measurements from PubChem BioAssay AID1347076 (National Center for Advancing Translational Sciences (NCATS), 2019).
Screen size: about 400,000 compounds; about 13,000 (3.2%) were called active. Listed are the inconclusive results; actives and inactives stand elsewhere. Calls come from the whole dose curve; as a rule, active = well fitted cell-killing curve with a large enough effect; inconclusive = small, poorly fitted or top-dose-only effect, or effect the other way; inactive = flat fitted curve, though single readings scatter.
% is set by controls: 0 for no effect and ±100 for the full control effect; potency is the fitted concentration of half-maximal effect.

Assay: qHTS assay for MDR1-selective chemotherapeutics: Primary screen using the drug-selected MDR subline cells KB-V1; note: nearly all actives have a fitted effect of over 60% in size
Settings: KB-V1 MDR cells viability, CellTiter-Glo, 72 h; activity change, negative = cytotoxicity: at 46.1 µM (top of the series)
Source text: A prime difficulty in effectively treating cancer is the development of cellular resistance to multiple structurally unrelated anticancer drugs, a phenomenon known as multidrug resistance (MDR). […] Numerous strategies to overcome P-gp-mediated MDR have been explored, including the design of drugs that evade recognition and efflux, and development of inhibitors to block efflux and restore drug accumulation. […] An alternative approach is to exploit resistance by identifying drugs that target MDR cells over the non-resistant parental cells from which they were selected. […] The development of MDR1-selective agents represents a new strategy for resolving multidrug resistance, as it remains a long-standing clinical challenge for cancer chemotherapy.
Our goal is to identify compounds that selectively kill P-gp-expressing MDR cells. We will identify MDR1-selective compounds by comparing toxicity of compounds in the screening library against parental, drug-naive (KB-3-1) adenocarcinoma cells as well as their drug-selected MDR sub-line (KB-V1). The differential toxicity of compounds against these two cell lines will be used to identify MDR1-selective compounds, whose cytotoxicity is potentiated, rather than diminished, by P-gp expression. This assay will be utilized to conduct a quantitative high-throughput screen (qHTS) in collaboration with the NIH Chemical Genomics Center to identify selective agents, and probe hits arising from the screen will be validated using secondary assays and characterized through a well-established follow-up research program. This screen was run against the entire NCGC library collection of about 400,000 compounds.
NIH Molecular Libraries Probe Production Network [MLPCN]
NIH Chemical Genomics Center [NCGC]
PI: Michael Gottesman, National Cancer Institute, NIH
Briefly, 5 microL of media containing either KB-V1 cells (columns 1-2, 4-48) are dispensed into Greiner white, treated solid-bottom 1536-well assay plates (media-only control is added to column 3). Compounds are then transferred via Kalypsys pin tool equipped with 1536-pin array (10 nL slotted pins, V&P Scientific, San Diego, CA). Following addition of compound, the plates are incubated at 37 degrees C for 72 hours. CellTiter-Glo (2.5 µL/well) is then added, and the plates are read in a ViewLux reader (Perkin-Elmer, clear luminescence filter, 1 second exposure, 1x binning) following a 10 minute incubation. All cells are dispensed in DMEM phenol-red free media containing 10% FBS.
Library plates were screened starting from the lowest and proceeding to the highest concentration. Vehicle-only plates, with DMSO being pin-transferred to columns 5-48, will be inserted uniformly at the beginning and the end of each library in order to monitor and record any shifts in the background, which can be affected by reagent dispensers or loss in enzyme activity over time. Screening data will be corrected, normalized, and concentration-effect relationships will be derived by using publicly-available NCGC, NCATS curve fitting algorithms (http://ncgc.nih.gov/pub/openhts).
In the case of O=[N+]([O-])c1ccc(O)c(/C=N/Nc2ccc([N+](=O)[O-])cc2[N+](=O)[O-])c1, the Potency is reported as inconclusive: 29.1 µM. With O=P(Nc1ccccn1)(c1ccc(Br)cc1)c1ccc(Br)cc1 the Potency was inconclusive: 18.4 µM. In the case of Cc1ccccc1OP(=O)(Nc1ccccn1)Oc1ccccc1C, the Potency is reported as inconclusive: 29.1 µM. With O=c1c2cc([N+](=O)[O-])ccc2[nH]c2c([N+](=O)[O-])cc([N+](=O)[O-])cc12 the Potency was inconclusive: 25.9 µM. In the case of Cc1ccc(OP(=O)(Nc2ccccn2)Oc2ccc(C)cc2)cc1, the Potency is reported as inconclusive: 14.6 µM. In the case of CCNC(=S)/N=C(\N)N[N+](=O)[O-], the Potency is reported as inconclusive: 23.1 µM. In the case of C[C@H]1OP(=O)(Oc2ccccc2)C[C@@H]2O[C@@H]21 (some centres undefined), the Potency is reported as inconclusive: 20.6 µM. With CN(C(=O)Cc1ccc(Cl)c(Cl)c1)[C@H]1CCCC[C@H]1N1CCCC1 the Potency was inconclusive: 9.2 µM. With Nc1c(O)cc([N+](=O)[O-])cc1[N+](=O)[O-] the Potency was inconclusive: 29.1 µM. With CN(C(=O)Cc1ccc(Cl)c(Cl)c1)[C@H]1CCCC[C@@H]1N1CCCC1 the Potency was inconclusive: 14.6 µM. For O=P(Nc1nc2ccc(Cl)cc2s1)(c1ccccc1)c1ccccc1, the Potency was inconclusive: 29.1 µM. For O=C(Nc1cc([As](=O)(O)O)ccc1O)c1ccccc1, the Potency was inconclusive: 0.206 µM. With C[N+]1=C2C=CC=CC=C2SC12C([N+](=O)[O-])=CC([N+](=O)[O-])=C[C-]2[N+](=O)[O-] (centres undefined) the Potency was inconclusive: 25.9 µM. With CSc1ccc(Nc2c([N+](=O)[O-])cc([N+](=O)[O-])cc2[N+](=O)[O-])cc1 the Potency was inconclusive: 14.6 µM. In the case of COP1(=S)c2c(C)nn(CCC#N)c2N=C(c2ccc(F)cc2)N1C (centres undefined), the Potency is reported as inconclusive: 18.4 µM. In the case of CC(C)NC(=O)NP(=O)(Oc1ccccc1)Oc1ccccc1, the Potency is reported as inconclusive: 29.1 µM. In the case of CC(C)c1ccc(OP(=O)(Nc2ccccn2)Oc2ccccc2F)cc1 (centres undefined), the Potency is reported as inconclusive: 29.1 µM. In the case of CCCOP(=S)(Nc1nc(N)cc(=O)[nH]1)OCCC, the Potency is reported as inconclusive: 20.6 µM. With Cc1ccc(NCCc2c([N+](=O)[O-])cc([N+](=O)[O-])cc2[N+](=O)[O-])cc1 the Potency was inconclusive: 29.1 µM. For COc1cc(C(=O)NCC2(N3CCOCC3)CCCCC2)cc(Cl)c1OC(C)C, the Potency was inconclusive: 6.51 µM. With CN(C)C(=O)c1cc([N+](=O)[O-])cc2c1-c1c(cc([N+](=O)[O-])cc1[N+](=O)[O-])C2=O the Potency was inconclusive: 18.4 µM. For N#CCCN(C(=O)COC(=O)C(O)(c1ccccc1)c1ccccc1)c1ccc(F)cc1, the Potency was inconclusive: 13 µM. In the case of NC(=O)Nc1ccc([As](=O)(O)O)cc1, the Potency is reported as inconclusive: 18.4 µM. With O=C(O)COc1ccc([As](=O)(O)O)cc1[N+](=O)[O-] the activity change, negative = cytotoxicity was inconclusive: 13.2%. In the case of CCOP1(=S)c2c(C)nn(CCC#N)c2N=C(c2ccccc2F)N1C (centres undefined), the Potency is reported as inconclusive: 8.2 µM. With O=P(Nc1nccs1)(c1ccccc1)c1nc2ccccc2s1 (centres undefined) the Potency was inconclusive: 18.4 µM. In the case of Cc1ccc(OCC(=O)OC2CN3CCC2CC3)cc1 (centres undefined), the Potency is reported as inconclusive: 32.6 µM. With CC1CCC(C(C)C)C(OP(=O)(Nc2ccccn2)c2ccccc2)C1 (centres undefined) the Potency was inconclusive: 5.8 µM. In the case of CN(C(=O)Cc1ccc(Cl)c(Cl)c1)[C@@H]1CCCC[C@H]1N1CCCC1, the Potency is reported as inconclusive: 13 µM.
